Apparent affinities of Ab-14 variants for a coronavirus HR2 peptide

Target peptide (SARS-CoV-2 spike, HR2 region): PDVDLGDISGINAS

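Phage display of a naive human antibody library on the peptide gave the parent. AAYL50 was designed without a model: most single CDR substitutions and a random sample of double and triple ones. In AlphaSeq, yeast of one mating type display the scFv and yeast of the other type display the target. Binding brings cells together so that they mate, and sequencing counts the barcode pairs among the diploids. A regression on co-assayed BCL2-family reference pairs converts the normalised counts of each replicate to an apparent Kd. Each pool was mated in three replicate cultures.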

Ab-14 is the parent antibody, in scFv form: VH, then a (GGGGS)3 linker, then VL. The heavy chain is unchanged in all variants.
VH: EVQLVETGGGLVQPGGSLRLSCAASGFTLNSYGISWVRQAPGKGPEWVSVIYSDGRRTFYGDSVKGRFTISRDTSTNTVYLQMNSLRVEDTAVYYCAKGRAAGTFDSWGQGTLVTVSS
VL: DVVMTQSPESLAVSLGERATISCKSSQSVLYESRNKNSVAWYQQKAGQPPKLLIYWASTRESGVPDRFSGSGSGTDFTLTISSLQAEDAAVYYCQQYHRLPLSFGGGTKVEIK

Each variant is given by its three light chain CDRs, as the data file delimits them; those of the parent are KSSQSVLYESRNKNSVA, WASTRES, QQYHRLPLS. The read-out is the apparent dissociation constant on a log10 scale (nM): the lower, the stronger. "n.d." marks a missing value. The strain was present, yet no cells mated with the target were sequenced in that replicate, which points to weak or no binding.

CDR-L1 | CDR-L2 | CDR-L3 | log10 Kd (nM) by replicate | signal with controls
KSSQSVLYESHNKNSVA | WASTRES | QQYHRHPQS | n.d. 4.14 n.d. | 0/9
KSSQSVLYESRNKFSVA | WASTRES | QCYHRNPLS | 1.26 1.61 1.28 | 0/9
KSSQSVLHESRNKNSVA | WLSTRPS | QQYHRLPLS | n.d. n.d. n.d. | 0/9
KSSQSVLGEARNKNSVA | WASTRCS | QQYHRLPLS | 0.77 0.96 0.95 | 3/9 (3.90)
KSSQSVLYGSRNKNSVA | WASTRES | QLYHALPLS | 1.64 1.66 1.68 | 0/9
KSSNPVLYESRNKNSVA | WASTRES | QQYHRLPLS | 1.35 1.71 1.48 | 0/9
KSSQSHLYESRNKNSVA | WASTRES | RQYHRLCLS | n.d. n.d. n.d. | 0/9
KSSQSVLYESRNKNSVC | WASTRES | QQYHRKPLM | 3.60 n.d. n.d. | 1/9 (3.57)
KSSQSVLYEDRNKNSVD | WASTGES | QQYHRLPLS | n.d. n.d. 3.94 | 0/9
KSSQSVLYESRNKNSSA | WASTRES | EQYHRLPMS | n.d. n.d. n.d. | 0/9
SSSQSVLYESRNKDSVA | WASTWES | QQYHRLPLS | n.d. n.d. n.d. | 1/9 (2.82)
QSSQSVLYESVNKNSVC | WASTRES | QQYHRLPLS | 1.98 2.65 2.78 | 1/9 (4.06)
KSSASVLYDSRNKNSVA | WASTRES | QQYHRLILS | n.d. n.d. n.d. | 0/9
KSPQAVLYESRNKQSVA | WASTRES | QQYHRLPLS | 0.02 0.52 0.26 | 0/9
KLSQSVCYESRNKNSVA | WASTRES | QQYHRLPLS | 0.19 0.44 0.32 | 5/9 (5.17)
KSSQSVIYESRNKTSVA | WASTRES | QQYHRNPLS | 3.16 3.25 3.39 | 3/9 (4.08)
KSKQSVLYQSRNKNSVA | WASTREC | QQYHRLPLS | 3.90 3.94 3.85 | 6/9 (4.58)
KSSQSVLYESRNKNSVA | WAGTRES | QQYHRLPIR | n.d. n.d. n.d. | 0/9
KPSQSVLVESRNKNSVA | WASTRPS | QQYHRLPLS | 3.67 n.d. 3.72 | 1/9 (4.01)
KSSQSVLYESRNKLSVA | WASTRES | QQYHRLPLE | 1.75 1.74 2.17 | 0/9
KSSQSVLYVSRNKNIVA | WASTRES | QQYHRLMLS | n.d. 3.25 n.d. | 1/9 (3.29)
KSSQNVLYESRNKNSVA | FISTRES | QQYHRLPLS | 0.57 0.74 0.63 | 0/9
KSSQRVLFESRNKNSVA | WASTRES | WQYHRLPLS | n.d. n.d. 5.69 | 1/9 (4.78)
KSSQSVLYEFRNKDSVA | WASTRES | QLYHRLPLS | 4.19 n.d. 3.80 | 0/9
KSSQSVNYESRNKNKVA | WASTRES | QSYHRLPLS | n.d. n.d. n.d. | 0/9
KSSQSVLYESRNKNSVA | WDSTRES | SQYHRLPLM | n.d. 3.28 2.58 | 3/9 (3.66)
KSSMSVLYESRNKNSVT | WASTRES | QIYHRLPLS | n.d. n.d. n.d. | 0/9
KSSYSVLYESRNKNSVP | WASTRES | QKYHRLPLS | n.d. n.d. 4.89 | 4/9 (4.88)
KELQSVLYESRNKNSVA | WASTRES | QQPHRLPLS | n.d. 4.91 n.d. | 2/9 (3.42)
KSSQSALYWSRNKNSVA | WASTRES | QQIHRLPLS | n.d. n.d. n.d. | 0/9
KWSQSVLYESRNKNSVA | WASTRES | QQYHRLCLS | 1.69 1.70 1.93 | 1/9 (3.26)
KSSQSMLYESRHKNSVA | WASTRIS | QQYHRLPLS | 1.12 1.22 1.07 | 3/9 (3.71)
KSSQSVLYESRNKNSVL | WANTRES | QTYHRLPLS | n.d. n.d. 4.64 | 1/9 (5.35)
KSSQEVLYESRNKNDVA | WVSTRES | QQYHRLPLS | n.d. 3.52 3.34 | 4/9 (4.61)
KSSQSVLYESRNKNSVA | WASTRRS | QQYCRLVLS | n.d. n.d. n.d. | 0/9
KSSQSVLYESNNKNSVA | RASTRES | QQYNRLPLS | 1.11 0.80 0.60 | 0/9
KSSQSVLFFSRNKNSVA | WASTRES | QQYHRLPLS | 1.60 1.75 1.94 | 2/9 (4.39)
KSSQSVLYESRNKNSVA | WASTRES | QQDHDLHLS | n.d. 4.56 n.d. | 0/9
KSSQSVLYESRNKNSVA | WAKTRDS | QQYHRLDLS | n.d. n.d. n.d. | 1/9 (3.63)
KSSYSVLYVSRNMNSVA | WASTRES | QQYHRLPLS | 2.99 1.97 2.74 | 2/9 (4.48)
KSSQSVLYESRNKNSVA | WASTREG | QQYHRLNGS | 6.13 4.43 n.d. | 2/9 (4.39)
KSSQSVLYDSRNKNSVA | WASTRES | QQYHRLALS | 0.57 0.75 0.67 | 3/9 (4.99)
KSSQSQLGESRNKNSVK | WASTRES | QQYHRLPLS | n.d. n.d. n.d. | 0/9

The 4 strongest on average among those seen in every replicate, once more:

CDR-L1 | CDR-L2 | CDR-L3 | log10 Kd (nM) by replicate | signal with controls
KSPQAVLYESRNKQSVA | WASTRES | QQYHRLPLS | 0.02 0.52 0.26 | 0/9
KLSQSVCYESRNKNSVA | WASTRES | QQYHRLPLS | 0.19 0.44 0.32 | 5/9 (5.17)
KSSQNVLYESRNKNSVA | FISTRES | QQYHRLPLS | 0.57 0.74 0.63 | 0/9
KSSQSVLYDSRNKNSVA | WASTRES | QQYHRLALS | 0.57 0.75 0.67 | 3/9 (4.99)

For reference, the parent read 0.65 as the reference entry and 1.68 as a member of this library. Empty control strains, which show no peptide, gave a signal in 18% of pairings with library AAYL50; the median was 4.19 and 95% of these signals were weaker than 2.99. No background was subtracted. The control count says in how many pairings with the empty strains this scFv gave a signal, with their mean in brackets.

Reference: Engelhart et al. 2022, doi:10.1038/s41597-022-01779-4. File: FLAb, binding data.